Assay results: patent publication US11285169B2, “Methods for modulating chemotherapeutic cytotoxicity” (The United States of America, as represented by the …, priority 2013, dated 2022)

Key:
[1] = system: CD47 deficient (CD47 KO) Jurkat T cells; experiment: CellTiter-Glo viability screen of 1913 chemotherapeutic agents, CD47 deficient Jurkat cells; settings: 48 hours
WT Jurkat cells = experiment: CellTiter-Glo viability screen of 1913 chemotherapeutic agents, wild-type Jurkat cells; settings: 48 hours, 10^-9 to 10^-4 M

4-Demethyl-epipodophyllotoxin
Maximal Response CD47 KO (RLU) ([1]; CD47 KO Jurkat T cells, 10^-9 to 10^-4 M, CellTiter-Glo): 78.185 RLU
Δ Maximal Response CD47KO-WT ([1]; difference CD47 KO minus WT Jurkat cells): 60.45
Maximal Response WT (RLU) (WT Jurkat cells): 17.735 RLU
